The values below come from the supplement of paper PMC6411743.

Sequences of proteins named here, by UniProt entry; tags and fusion partners are left off.
UniProt P59768, whole entry: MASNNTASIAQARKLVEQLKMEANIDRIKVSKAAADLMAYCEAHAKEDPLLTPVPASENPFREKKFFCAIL

The assay addresses G3V2N0 and related entries (UniProt P59768). The assay is described as follows: NP40-soluble protein abundance relative to vehicle (solubility fold change) (ratio); higher = more soluble protein in presence of ATP. In a few lines: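 Across three independent experiments, values are fold changes against the detergent-processed vehicle for each replicate, based on vsn-normalised intensities. The samples were Jurkat crude lysate treated with eight concentrations (0.1 to 10 mM) for 10 min at room temperature and then 3 min at 37 °C. Lysate was solubilised with 0.8% NP40 and benzonase, ultracentrifuged, and the supernatant analysed by TMT-labelled LC-MS/MS.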

± gives the standard deviation of the averaged measurements. Only a part is listed here, and it is no random draw.

As for `Nc1ncnc2c1ncn2[C@@H]1O[C@H](COP(=O)(O)OP(=O)(O)OP(=O)(O)O)[C@@H](O)[C@H]1O` [adenosine triphosphate], the NP40-soluble protein abundance (concentration: 1mM) came to 0.859 ± 0.14; the NP40-soluble protein abundance (concentration: 2mM) was found to be 0.803 ± 0.1; the NP40-soluble protein abundance (concentration: 4mM) was determined as 0.899 ± 0.084; the NP40-soluble protein abundance (concentration: 6mM) stood at 0.884 ± 0.11; the NP40-soluble protein abundance (concentration: 8mM) turned out to be 0.818 ± 0.083; the NP40-soluble protein abundance (concentration: 10mM) came out at 0.798 ± 0.13.
